Patent publication EP4847483A1, “SUPRAMOLECULAR 4-METHOXYSALICYLIC ACID TRANEXAMIC ACID IONIC SALT, PREPARATION METHOD THEREFOR, AND USE THEREOF” (dated 2026)

Legend:
[1] = tested on: Human melanocytes; assay: Cytotoxicity detection (MTT, cell viability); conditions: 24 h
[2] = Transdermal effect test (Franz cell method); conditions: 3 wt% aqueous solution, mouse skin, PBS pH ≈ 7.4, 32 °C
[3] = tested on: human skin; assay: Human skin closed patch test; conditions: 3 wt% aqueous solution; for Number of persons with different skin reaction grades in the patch test: 0: grade 0 (Negative reaction); for Number of persons with different skin reaction grades in the patch test: 0 / Number of persons with different skin reaction grades in the patch test: 1 / Number of persons with different skin reaction grades in the patch test: 2 / Number of persons with different skin reaction grades in the patch test: 3 / Number of persons with different skin reaction grades in the patch test: 4: 40 subjects; for Number of persons with different skin reaction grades in the patch test: 1: grade 1 (Doubtful reaction); for Number of persons with different skin reaction grades in the patch test: 2: grade 2 (Weakly positive reaction); for Number of persons with different skin reaction grades in the patch test: 3: grade 3 (Strongly positive reaction); for Number of persons with different skin reaction grades in the patch test: 4: grade 4 (Extremely strong positive reaction)

Permeation amount per unit area (µg/cm^2) ([2]; 2h): 6.57 µg/cm^2
Permeation amount per unit area (µg/cm^2) ([2]; 5h): 84.32 µg/cm^2
Permeation amount per unit area (µg/cm^2) ([2]; 21h): 500.79 µg/cm^2
Permeation amount per unit area (µg/cm^2) ([2]; 24h): 841.36 µg/cm^2
Compound: COc1ccc(C(=O)[O-])c(O)c1.[K+]
Cell viability (%) Mean ([1]; 0.0195 mg/mL): 95.25%
Cell viability (%) Mean ([1]; 0.0391 mg/mL): 94.25%
Cell viability (%) Mean ([1]; 0.0781 mg/mL): 90.10%
Cell viability (%) Mean ([1]; 0.1563 mg/mL): 85.17%
Cell viability (%) Mean ([1]; 0.3125 mg/mL): 82.32%
Cell viability (%) Mean ([1]; 0.625 mg/mL): 80.43%

Permeation amount per unit area (µg/cm^2) ([2]; 2h): 10.96 µg/cm^2
Permeation amount per unit area (µg/cm^2) ([2]; 5h): 113.29 µg/cm^2
Permeation amount per unit area (µg/cm^2) ([2]; 21h): 1132.54 µg/cm^2
Permeation amount per unit area (µg/cm^2) ([2]; 24h): 1354.74 µg/cm^2
Compound: NC[C@H]1CC[C@H](C(=O)O)CC1

Permeation amount per unit area (µg/cm^2) ([2]; 2h, listed as Experimental Example 1): 12.34 µg/cm^2
Permeation amount per unit area (µg/cm^2) ([2]; 2h, listed as Experimental Example 2): 11.39 µg/cm^2
Permeation amount per unit area (µg/cm^2) ([2]; 5h, listed as Experimental Example 1): 123.46 µg/cm^2
Permeation amount per unit area (µg/cm^2) ([2]; 5h, listed as Experimental Example 2): 115.63 µg/cm^2
Permeation amount per unit area (µg/cm^2) ([2]; 21h, listed as Experimental Example 1): 1759.46 µg/cm^2
Permeation amount per unit area (µg/cm^2) ([2]; 21h, listed as Experimental Example 2): 1345.67 µg/cm^2
Permeation amount per unit area (µg/cm^2) ([2]; 24h, listed as Experimental Example 1): 2230.47 µg/cm^2
Permeation amount per unit area (µg/cm^2) ([2]; 24h, listed as Experimental Example 2): 1852.64 µg/cm^2
Number of persons with different skin reaction grades in the patch test: 0 ([3]; 0.5h after removal): 40
Number of persons with different skin reaction grades in the patch test: 0 ([3]; 24h after removal): 40
Number of persons with different skin reaction grades in the patch test: 0 ([3]; 48h after removal): 40
Number of persons with different skin reaction grades in the patch test: 1 ([3]; 0.5h after removal): 0
Number of persons with different skin reaction grades in the patch test: 1 ([3]; 24h after removal): 0
Number of persons with different skin reaction grades in the patch test: 1 ([3]; 48h after removal): 0
Number of persons with different skin reaction grades in the patch test: 2 ([3]; 0.5h after removal): 0
Number of persons with different skin reaction grades in the patch test: 2 ([3]; 24h after removal): 0
Number of persons with different skin reaction grades in the patch test: 2 ([3]; 48h after removal): 0
Number of persons with different skin reaction grades in the patch test: 3 ([3]; 0.5h after removal): 0
Number of persons with different skin reaction grades in the patch test: 3 ([3]; 24h after removal): 0
Number of persons with different skin reaction grades in the patch test: 3 ([3]; 48h after removal): 0
Number of persons with different skin reaction grades in the patch test: 4 ([3]; 0.5h after removal): 0
Number of persons with different skin reaction grades in the patch test: 4 ([3]; 24h after removal): 0
Number of persons with different skin reaction grades in the patch test: 4 ([3]; 48h after removal): 0
Compound: supramolecular 4-methoxysalicylic acid tranexamic acid ionic salt
Cell viability (%) Mean ([1]; 0.0195 mg/mL): 102.68%
Cell viability (%) Mean ([1]; 0.0391 mg/mL): 100.36%
Cell viability (%) Mean ([1]; 0.0781 mg/mL): 96.94%
Cell viability (%) Mean ([1]; 0.1563 mg/mL): 95.46%
Cell viability (%) Mean ([1]; 0.3125 mg/mL): 94.16%
Cell viability (%) Mean ([1]; 0.625 mg/mL): 88.49%
subjects with adverse skin reactions ([3]; of the 40 subjects, human skin closed patch test): 0

Each block holds one compound with its values, some of them ahead of it.
